Laboratory results taken from ChEMBL document CHEMBL1765026, “Small molecule agonists of the orphan nuclear receptors steroidogenic factor-1 (SF-1, NR5A1) and liver receptor homologue-1 (LRH-1, NR5A2)” (J Med Chem, 2011).

The chains behind the UniProt entries cited, without tags or fusion partners.
UniProt Q13285, whole entry: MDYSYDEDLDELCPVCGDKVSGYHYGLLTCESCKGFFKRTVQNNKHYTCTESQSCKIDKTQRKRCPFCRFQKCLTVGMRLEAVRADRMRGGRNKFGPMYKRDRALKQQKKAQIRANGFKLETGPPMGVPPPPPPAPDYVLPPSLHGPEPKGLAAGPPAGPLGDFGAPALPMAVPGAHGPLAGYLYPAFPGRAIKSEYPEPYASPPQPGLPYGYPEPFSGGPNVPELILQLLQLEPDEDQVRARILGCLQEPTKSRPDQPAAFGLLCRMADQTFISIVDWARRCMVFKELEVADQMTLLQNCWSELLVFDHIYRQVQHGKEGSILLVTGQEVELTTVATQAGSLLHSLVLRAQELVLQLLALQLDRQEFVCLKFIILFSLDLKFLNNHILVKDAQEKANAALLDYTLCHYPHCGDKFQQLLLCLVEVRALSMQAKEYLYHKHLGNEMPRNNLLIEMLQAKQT

Molecular target: Steroidogenic factor 1 (Homo sapiens, UniProt Q13285)
Experiment: Agonist activity at human SF-1 assessed as DAX1 1-23 peptide recruitment by TR-FRET assay relative to control

## C=C(c1ccccc1)[C@@]12CC[C@@H](O)[C@@H]1CC(CCCCCC)=C2c1ccccc1 (racemic)
  EC50: 31.6 nM

## C=C(c1ccccc1)[C@@]12CC[C@H](O)[C@@H]1CC(CCCCCC)=C2c1ccccc1 (racemic)
  EC50: 63.1 nM
